Measurements published in patent EP4840852A1, “DIPHENYLTRIAZINE COMPOUND, PREPARATION METHOD THEREFOR AND USE THEREOF” (dated 2026).

Tests used:
TA98 strain = experiment: Bacterial reverse mutation assay with 6-well plate, TA98
TA100 strain = experiment: Bacterial reverse mutation assay with 6-well plate, TA100; conditions: TA100+S9
[1] = TA98-S9, positive control 0.2 µg/well
[2] = TA98-S9, positive control 0.2 µg/well (Table 8)
[3] = TA98+S9, positive control 0.6 µg/well
[4] = TA98+S9, positive control 0.6 µg/well (Table 8)
[5] = positive control 0.6 µg/well (Table 9)

| SMILES | Background lawn (TA98 strain; [1]) | Reverse mutation colony Mean (TA98 strain; [1]) | Reverse mutation colony Number per well (TA98 strain; [1]) | Background lawn (TA98 strain; [2]) | Reverse mutation colony Mean (TA98 strain; [2]) | Reverse mutation colony Number per well (TA98 strain; [2]) | Background lawn (TA98 strain; [3]) | Reverse mutation colony Mean (TA98 strain; [3]) | Reverse mutation colony Number per well (TA98 strain; [3]) | Background lawn (TA98 strain; [4]) | Reverse mutation colony Number per well (TA98 strain; [4]) | Background lawn (TA100 strain; positive control 0.6 µg/well) | Reverse mutation colony Mean (TA100 strain; positive control 0.6 µg/well) | Reverse mutation colony Number per well (TA100 strain; positive control 0.6 µg/well) | Background lawn (TA100 strain; [5]) | Reverse mutation colony Mean (TA100 strain; [5]) | Reverse mutation colony Number per well (TA100 strain; [5]) |
| --- | --- | --- | --- | --- | --- | --- | --- | --- | --- | --- | --- | --- | --- | --- | --- | --- | --- |
| O=[N+]([O-])c1ccc2c(c1)Cc1ccccc1-2 | T0 | 114. 0* | 112 and 116 | T0 | 114. 0 * | 112 and 116 |  |  |  |  |  |  |  |  |  |  |  |
| Nc1ccc2cc3ccccc3cc2c1 |  |  |  |  |  |  | T0 | 348. 0* | 344 and 352 | T0 | 344 and 352 | T0 | 454 | 444 and 464 | T0 | 454 · | 444 and 464 |

“And” between values parts separate entries of the source, which are not always exact repeats. Equal values may be shown once. Marks after values point to notes of the source that are not given here.
